Test results: patent US12337000B2, “Therapeutic modulators of the reverse mode of ATP synthase” (priority 2017, dated 2025)

Protein sequences, listed by entry. Tags and fused reporters are not part of them.
UniProt P11712, whole entry: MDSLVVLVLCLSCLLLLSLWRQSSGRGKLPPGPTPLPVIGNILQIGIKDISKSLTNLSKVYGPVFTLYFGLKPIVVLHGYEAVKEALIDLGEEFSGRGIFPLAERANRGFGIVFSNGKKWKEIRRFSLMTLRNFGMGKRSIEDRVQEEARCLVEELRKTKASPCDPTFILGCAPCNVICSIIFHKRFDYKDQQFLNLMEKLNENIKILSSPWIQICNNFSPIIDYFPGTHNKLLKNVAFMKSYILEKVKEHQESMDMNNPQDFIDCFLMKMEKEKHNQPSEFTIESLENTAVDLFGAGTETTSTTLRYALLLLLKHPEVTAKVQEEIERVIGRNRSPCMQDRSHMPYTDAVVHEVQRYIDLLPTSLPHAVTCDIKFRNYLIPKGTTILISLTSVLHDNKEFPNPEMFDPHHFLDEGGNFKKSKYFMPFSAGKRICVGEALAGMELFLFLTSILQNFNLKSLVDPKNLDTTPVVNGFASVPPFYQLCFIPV

Key:
F1F0 ATP hydrolase = F1F0 ATP hydrolase (Bos taurus, UniProt P00829+P19483); settings: read-out: EC50 F1F0 ATP hydrolysis / hydrolase; SMP studies in [5-8]; cited from earlier work
[1] = system: 59 cancer cell lines (NCI-60); assay: NCI-60 one-dose in vitro assay; settings: 10 μM
CYP2C9 = CYP2C9 (Homo sapiens, UniProt P11712); settings: cited from earlier work
F1F0 ATP synthesis = F1F0 ATP synthesis (Bos taurus, UniProt P00829+P19483); settings: read-out: EC50 F1F0 ATP synthesis; SMP assays, [5-8]; cited from earlier work

## Cc1nc[nH]c1CN1c2ccccc2CN(S(=O)(=O)c2ccc(Cl)c(Cl)c2)CC1CCc1ccccc1 (stereo not shown)
F1F0 ATP hydrolase
  EC50: 22 nM
[1]
  anti-cancer activity (in words): Anti-cancer activity
CYP2C9
  EC50: 2000 nM
F1F0 ATP synthesis
  EC50: > 30000 nM
